In ChEMBL document CHEMBL1127434, “Discovery of nanomolar ligands for 7-transmembrane G-protein-coupled receptors from a diverse N-(substituted)glycine peptoid library” (J Med Chem, 1994) one finds Ki data, which are given here for 1 compound.

Amino acid sequences for entries named in this document (tags omitted). A change or cut given only in a name is not applied to a line headed by its entry.
UniProt P15823: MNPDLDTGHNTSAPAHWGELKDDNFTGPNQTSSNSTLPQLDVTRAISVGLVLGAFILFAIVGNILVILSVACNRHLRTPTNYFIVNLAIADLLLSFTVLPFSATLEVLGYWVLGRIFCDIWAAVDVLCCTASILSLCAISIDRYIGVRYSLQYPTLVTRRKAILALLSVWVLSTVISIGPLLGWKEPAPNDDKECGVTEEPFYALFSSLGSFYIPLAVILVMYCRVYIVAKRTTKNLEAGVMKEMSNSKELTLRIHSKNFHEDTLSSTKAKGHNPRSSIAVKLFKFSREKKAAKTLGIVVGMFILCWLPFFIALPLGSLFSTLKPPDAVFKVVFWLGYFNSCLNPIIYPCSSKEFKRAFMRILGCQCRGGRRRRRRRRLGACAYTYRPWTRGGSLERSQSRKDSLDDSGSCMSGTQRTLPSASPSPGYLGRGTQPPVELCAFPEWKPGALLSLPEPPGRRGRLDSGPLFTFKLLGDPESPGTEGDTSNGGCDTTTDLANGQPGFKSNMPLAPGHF
UniProt P23944: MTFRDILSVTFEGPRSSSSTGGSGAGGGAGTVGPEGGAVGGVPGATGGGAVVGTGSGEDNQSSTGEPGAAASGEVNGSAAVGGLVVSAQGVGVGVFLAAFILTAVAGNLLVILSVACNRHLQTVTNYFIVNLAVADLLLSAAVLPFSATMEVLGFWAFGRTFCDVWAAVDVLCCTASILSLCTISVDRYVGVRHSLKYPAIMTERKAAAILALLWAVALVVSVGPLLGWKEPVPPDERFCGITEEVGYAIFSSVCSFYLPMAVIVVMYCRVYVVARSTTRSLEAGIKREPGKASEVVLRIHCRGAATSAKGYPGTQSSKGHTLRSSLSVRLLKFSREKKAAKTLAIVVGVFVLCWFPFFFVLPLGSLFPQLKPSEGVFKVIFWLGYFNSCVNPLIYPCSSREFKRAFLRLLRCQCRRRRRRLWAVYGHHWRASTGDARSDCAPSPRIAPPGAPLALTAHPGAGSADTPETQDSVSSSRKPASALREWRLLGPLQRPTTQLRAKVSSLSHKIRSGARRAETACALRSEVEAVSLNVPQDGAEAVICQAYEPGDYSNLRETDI
UniProt P43140: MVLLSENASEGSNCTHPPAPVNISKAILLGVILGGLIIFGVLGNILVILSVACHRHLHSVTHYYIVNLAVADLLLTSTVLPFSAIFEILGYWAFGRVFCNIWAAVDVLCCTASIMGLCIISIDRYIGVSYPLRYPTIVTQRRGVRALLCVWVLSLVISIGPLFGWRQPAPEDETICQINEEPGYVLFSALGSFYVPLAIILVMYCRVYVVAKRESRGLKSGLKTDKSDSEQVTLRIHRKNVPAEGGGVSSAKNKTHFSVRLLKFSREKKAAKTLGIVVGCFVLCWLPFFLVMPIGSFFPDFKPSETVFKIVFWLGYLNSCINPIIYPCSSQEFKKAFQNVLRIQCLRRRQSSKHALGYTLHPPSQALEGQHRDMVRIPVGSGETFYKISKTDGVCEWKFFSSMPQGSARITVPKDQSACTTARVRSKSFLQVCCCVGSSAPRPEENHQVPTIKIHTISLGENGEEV

This assay addresses Adrenergic receptor alpha-1 (Rattus norvegicus, UniProt P15823+P23944+P43140).

The structures appear in SMILES notation.

As usually defined, the Ki is a measure of affinity in units of concentration, obtained from inhibition or displacement. Read a high Ki as weaker binding. The compound `CNC[C@H](O)c1ccc(O)c(O)c1` [EPINEPHRINE] returned an inhibition constant Ki of 14 µM.
